“Also recorded” adds a separate entry of the source.
Assays:
[1] = test system: BT474 cells; assay: ErbB pathway activation/expression in Herceptin-sensitive BT474 cells, multiplexed proximity immuno-microarray and Western blot; format: cell-based, human
[2] = test system: BT/R cells; assay: ErbB pathway activation/expression in Herceptin-resistant BT/R cells, multiplexed proximity immuno-microarray and Western blot; format: cell-based, human
[3] = test system: BT/R cells; assay: Cell growth of Herceptin-resistant BT/R cells; format: cell-based, human
Text: The cells were lysed and the protein concentration determined by BCA protein assay.

[4] = test system: p95HER2; conditions: Xia 2004; cited from earlier work
[5] = test system: HER2-positive BCA; conditions: trastuzumab-complemented treatments; Nahta and Esteva 2006; cited from earlier work
[6] = BT474 cells with Herceptin treatment
[7] = BT/R cells with Herceptin treatment
[8] = BT/R compared to BT474 cells upon Herceptin treatment

trastuzumab [Herceptin]
HER1/2 dimer [1, 6]: downregulated | HER2/2 dimer [1, 6]: downregulated | HER2/3 dimer [1, 6]: downregulated | p95/HER3 levels [1, 6]: no change | phospho-HER3 [1, 6]: reduction; also recorded: reduced | phospho-SHC [1, 6]: reduction | total HER2 levels ([1]; BT474 cells, Herceptin treatment vs without Herceptin): moderate decrease; also recorded: decreased | phosphorylation of HER2 ([1]; BT474 cells, Herceptin treatment vs without Herceptin, 100 μg/ml, 2, 8, 24 hours): significant inhibition and inhibition and reduced and not | level of activation of truncated HER2 (phosphorylated p95HER2) ([1]; sensitive (BT474) cells treated with Herceptin for different times): not | expression of total p95HER2 ([1]; sensitive BT474 cells treated with Herceptin): decreased | phosphorylation (activation) of full length HER2 ([2]; BT/R cells treated with Herceptin): does not inhibit; also recorded: increases | HER1/2 dimer [2, 7]: downregulated | HER2/3 dimer [2, 7]: downregulated | p95/HER3 dimer [2, 7]: increased and then stabilized | phospho-HER3 [2, 7]: reduction | phospho-SHC [2, 7]: reduction | total HER2 levels ([2]; BT/R cells, Herceptin treatment vs without Herceptin): moderate decrease; also recorded: decreased | activation (phosphorylation) of p95HER2, resistant vs sensitive cells [2, 8]: significantly higher activation; also recorded: significant difference; also recorded: significantly higher phosphorylation | activation of HER2, resistant vs sensitive cells [2, 8]: significantly higher activation; also recorded: increased activation | activation of HER3, resistant vs sensitive cells [2, 8]: Increased activation; also recorded: higher in resistant cells at early time points | activation of PI3K, resistant vs sensitive cells [2, 8]: increased activation; also recorded: higher in resistant cells at early time points; also recorded: significantly higher activation | p95HER2-mediated pathway activation, resistant vs sensitive cell population ([2]; Herceptin-resistant BT474 cells vs Herceptin-sensitive cells when treated with Herceptin): approximately 5 fold | HER1 activation ([2]; Herceptin-resistant cell population when treated with Herceptin): weak | level of activation of truncated HER2 (phosphorylated p95HER2) ([2]; resistant (BT/R) cells treated with Herceptin for different times): increases | expression of total p95HER2 ([2]; resistant cells treated with Herceptin): decreased | cell growth [3]: does not inhibit | activation of p95 [4]: not inhibited | HER2-positive patients initially responding [5]: approximately 50%

Source: patent publication US9726669B2, “Biomarkers for determining sensitivity of breast cancer cells to HER2-targeted therapy” (PIERIAN HOLDINGS, INC., priority 2009, dated 2017)
